2 compounds from ChEMBL document CHEMBL2216752, “Carnitine palmitoyltransferase (CPT) modulators: a medicinal chemistry perspective on 35 years of research” (J Med Chem, 2011) can be followed below.

A short description of the assay: Inhibition of carnitine palmitoyltransferase.

Take `CCCCCCCCCCCCCCCC[C@H]1C[N+](C)(C)CCO[P@@](C)(=O)O1`: the IC50 was > 100 µM.
On to `CCCCCCCCCCCCCCCC[C@H]1C[N+](C)(C)CCO[P@](C)(=O)O1`, for which the IC50 was > 100 µM.
